Common to all, as to format: cell-based
Test [1] has as its target T1, L106P-MC4R (Rm1) (Homo sapiens, UniProt P32245, L106P).
T1 construct: prolactin signal peptide (N); green fluorescent protein (N); expressed in transfected cells; host or cells: HEK293
As to the kind of experiment: cAMP assay, L106P MC4R (Rm1) in HEK293 cells. The note with it: Rm1, increasing concentrations. The procedure:
(§1) HEK293 cells were maintained in Dulbecco's modified Eagle's medium supplemented with 10% fetal bovine serum containing L-glutamine. […] For the internalization assays, stable cell lines expressing wild-type or RASSL-MC4R were generated by G418-mediated selection (10 µg/ml) of clones expressing the neomycin-resistance gene cotransfected with MC4R. Stable cell lines were maintained by selection with 5 µg/ml G418.
(§2) cAMP production was measured with an ultra sensitive enzymatic cAMP assay (CatchPoint, Molecular Devices, Sunnyvale, CA). Transiently transfected cells were plated at 1×10^5/well into 96-well plates coated with poly-D-lysine (Sigma). Forty-eight h after transfection, cells were rinsed in Krebs-Ringer bicarbonate buffer containing glucose (Sigma) and incubated in pre-stimulation buffer containing 0.75 mM 3-isobutyl-1-methylxanthine in the same buffer for 10 min at room temperature. […] The cells were lysed, and cAMP accumulation was measured according to the CatchPoint protocol. cAMP generated under the different experimental conditions was interpolated from a cAMP standard curve for each experiment. Four replicates were used for each condition, and all experiments were repeated at least three times. Emax and EC50 values were calculated with SoftMax Pro. cAMP measurements were performed on transiently transfected cells.
A general note: Cyclic AMP is a second messenger, typically raised through Gs and lowered through Gi signalling.

Protein sequences, listed by entry. Tags and fused reporters are not part of them.
UniProt P32245, whole entry L106P: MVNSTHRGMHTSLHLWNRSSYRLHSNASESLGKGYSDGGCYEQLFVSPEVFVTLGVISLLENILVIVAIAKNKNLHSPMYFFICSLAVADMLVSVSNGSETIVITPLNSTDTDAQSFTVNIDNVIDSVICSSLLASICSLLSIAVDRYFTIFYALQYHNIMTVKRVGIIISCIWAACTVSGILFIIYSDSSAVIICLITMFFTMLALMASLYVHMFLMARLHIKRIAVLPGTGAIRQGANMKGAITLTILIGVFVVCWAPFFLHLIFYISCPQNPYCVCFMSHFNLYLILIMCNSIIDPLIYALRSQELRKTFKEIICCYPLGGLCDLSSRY
UniProt P32245, whole entry: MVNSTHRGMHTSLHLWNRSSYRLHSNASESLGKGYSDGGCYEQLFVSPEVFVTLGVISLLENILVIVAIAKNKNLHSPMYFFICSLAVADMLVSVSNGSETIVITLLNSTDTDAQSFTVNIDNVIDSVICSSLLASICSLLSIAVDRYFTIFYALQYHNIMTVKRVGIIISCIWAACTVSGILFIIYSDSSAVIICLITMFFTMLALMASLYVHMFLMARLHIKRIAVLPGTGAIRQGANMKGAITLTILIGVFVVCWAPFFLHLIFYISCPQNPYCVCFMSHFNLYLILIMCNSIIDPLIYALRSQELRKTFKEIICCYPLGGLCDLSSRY
UniProt P32245, whole entry D122A: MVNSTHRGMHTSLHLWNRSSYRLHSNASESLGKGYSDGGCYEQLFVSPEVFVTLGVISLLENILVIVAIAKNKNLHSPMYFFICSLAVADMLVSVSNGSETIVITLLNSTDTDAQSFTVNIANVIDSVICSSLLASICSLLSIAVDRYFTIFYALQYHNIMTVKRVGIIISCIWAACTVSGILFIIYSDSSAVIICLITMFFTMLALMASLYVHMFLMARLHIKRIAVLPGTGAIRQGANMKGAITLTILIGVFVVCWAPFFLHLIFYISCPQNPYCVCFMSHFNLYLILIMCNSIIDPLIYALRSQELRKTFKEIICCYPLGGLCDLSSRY

For test [2], the target named is T2, wild-type MC4R (Homo sapiens, UniProt P32245).
T2 construct: prolactin signal peptide (N); expressed in transfected cells; host or cells: HEK293
Briefly: cAMP assay, wild-type MC4R in transiently transfected HEK293 cells. The settings on record: WT MC4R, increasing concentrations. The procedure: as §1, §2

In test [3] the target is T3, D122A-MC4R (Rm2) (Homo sapiens, UniProt P32245, D122A).
T3 construct: prolactin signal peptide (N); green fluorescent protein (N); expressed in transfected cells; host or cells: HEK293
As to the kind of experiment: cAMP assay, D122A MC4R (Rm2) in HEK293 cells. The settings on record: Rm2, increasing concentrations. The procedure:
as §1, §2

With γ-MSH, the “Activation (cAMP release) in words” value in test [1] is recorded as “did not activate”; in test [2], “significantly weaker potency”; in test [3] it was “did not activate”.

The values above are taken from PMC1930153, “Engineering the Melanocortin-4 Receptor to Control Constitutive and Ligand-Mediated Gs Signaling In Vivo” (PLoS ONE, 2007).
